Columns and labels:
[1] = molecular target: human ALDH1A3 in A375 cells (Homo sapiens, UniProt P47895); experiment: Aldefluor assay in A375 cells; conditions: read-out: EC50 cellular, human ALDH1A3
mouse ALDH1A3 = mouse ALDH1A3 (Mus musculus, UniProt Q9JHW9); experiment: Recombinant enzyme activity assay; conditions: read-out: IC50 molecular, mouse ALDH1A3; recombinant activity assay (Table 1)
human ALDH1A3 [2] = molecular target: T1, human ALDH1A3 (Homo sapiens, UniProt P47895); experiment: Recombinant enzyme activity assay; conditions: read-out: IC50 molecular, human ALDH1A3; recombinant activity assay (Table 1)
[3] = molecular target: ALDH1A3 in SUM159-M1a-ALDH1A3 cells (Homo sapiens, UniProt P47895); experiment: Aldefluor dose titration in SUM159-M1a-ALDH1A3 cells; conditions: compared with MBE1.5A, C, or D
human ALDH1A3 [4] = molecular target: T1, human ALDH1A3; experiment: Microscale thermophoresis (MST) binding; conditions: read-out: Microscale thermophoresis; biophysical assay (Table 1)
[5] = system: endogenous ALDH1A3 in MDA-MB-468 cells; experiment: Quantification of atRA in cells; format: cell-based, human; conditions: 24 h, dose titration
purified human ALDH1A3 = purified human ALDH1A3 (Homo sapiens, UniProt P47895); experiment: Nanoscale differential scanning fluorimetry (DSF); conditions: data not shown

Amino acid sequences for entries named in this document (tags omitted).
UniProt P47895, whole entry: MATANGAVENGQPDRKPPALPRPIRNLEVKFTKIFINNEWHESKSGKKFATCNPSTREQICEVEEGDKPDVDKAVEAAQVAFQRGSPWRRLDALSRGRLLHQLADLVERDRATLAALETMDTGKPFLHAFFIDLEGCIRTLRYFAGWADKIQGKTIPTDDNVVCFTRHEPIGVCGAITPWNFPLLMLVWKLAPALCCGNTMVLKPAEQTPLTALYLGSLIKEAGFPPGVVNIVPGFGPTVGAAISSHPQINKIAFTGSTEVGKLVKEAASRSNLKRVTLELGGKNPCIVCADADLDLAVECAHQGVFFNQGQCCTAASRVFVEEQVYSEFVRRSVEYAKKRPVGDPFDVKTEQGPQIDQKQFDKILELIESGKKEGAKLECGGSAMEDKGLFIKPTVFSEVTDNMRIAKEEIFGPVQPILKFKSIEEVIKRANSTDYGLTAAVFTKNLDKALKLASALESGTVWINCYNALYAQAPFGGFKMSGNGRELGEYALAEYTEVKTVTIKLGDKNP
UniProt Q9JHW9, whole entry: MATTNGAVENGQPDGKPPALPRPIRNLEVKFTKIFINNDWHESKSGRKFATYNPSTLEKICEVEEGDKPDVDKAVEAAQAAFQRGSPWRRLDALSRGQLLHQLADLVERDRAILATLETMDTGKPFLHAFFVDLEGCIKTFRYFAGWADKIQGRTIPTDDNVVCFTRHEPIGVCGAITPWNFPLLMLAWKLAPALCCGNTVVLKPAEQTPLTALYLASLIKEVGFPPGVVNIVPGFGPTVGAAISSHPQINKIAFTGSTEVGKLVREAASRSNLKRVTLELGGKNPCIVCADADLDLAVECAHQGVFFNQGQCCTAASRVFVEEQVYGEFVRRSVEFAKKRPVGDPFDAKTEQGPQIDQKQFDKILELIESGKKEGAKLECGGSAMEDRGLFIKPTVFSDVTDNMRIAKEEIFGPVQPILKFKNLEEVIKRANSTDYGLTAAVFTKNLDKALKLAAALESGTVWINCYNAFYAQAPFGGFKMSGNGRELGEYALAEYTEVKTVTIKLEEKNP

EC50 [1]: 155 nM | IC50 (mouse ALDH1A3): 1850 nM | IC50 (human ALDH1A3 [2]): 2710 nM | potency in Aldefluor dose titration (in words) [3]: far less potent | Kd (human ALDH1A3 [4]): 1800 nM | thermal stabilization of purified ALDH1A3 (in words) (purified human ALDH1A3): little stabilization
SMILES: CC(C)c1ccccc1C(=O)Nc1cc2c(cc1F)NC(=O)CC2
reduction of atRA formation (in words) [5]: higher IC50

From publication PMC12595434, “Development of retinoid nuclear receptor pathway antagonists through targeting aldehyde dehydrogenase 1A3” (iScience, 2025)
